This note sets out measurements from PMC12406203 (Journal of Medicinal Chemistry, 2025).

By UniProt entry, the sequences of proteins in these tests, tags left out. Residues count along the entry.
UniProt P06276, 29-602: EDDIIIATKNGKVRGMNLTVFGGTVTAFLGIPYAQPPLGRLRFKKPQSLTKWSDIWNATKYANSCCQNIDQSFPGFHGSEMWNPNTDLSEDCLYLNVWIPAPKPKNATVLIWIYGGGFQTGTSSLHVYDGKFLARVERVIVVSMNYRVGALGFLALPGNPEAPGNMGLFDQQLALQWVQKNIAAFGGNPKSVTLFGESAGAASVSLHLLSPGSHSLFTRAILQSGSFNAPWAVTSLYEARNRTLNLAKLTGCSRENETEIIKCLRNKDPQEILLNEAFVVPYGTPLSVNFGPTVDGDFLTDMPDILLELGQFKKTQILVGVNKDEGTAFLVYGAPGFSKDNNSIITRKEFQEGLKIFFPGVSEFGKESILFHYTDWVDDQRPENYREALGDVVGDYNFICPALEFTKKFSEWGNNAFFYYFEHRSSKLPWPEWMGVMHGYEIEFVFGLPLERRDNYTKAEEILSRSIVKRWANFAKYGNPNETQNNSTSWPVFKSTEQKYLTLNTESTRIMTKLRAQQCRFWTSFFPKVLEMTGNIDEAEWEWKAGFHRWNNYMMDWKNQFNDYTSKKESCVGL

This test deals with hBChE (Homo sapiens, UniProt P06276). To be noted: residual activity at 100 μM; mean ± SD, one experiment in triplicate.

Structures are written as SMILES.

For `CC(C)Cn1ncc2cc(Oc3ccc(F)cc3F)c(C(=O)NCCN(C)C)cc21` [Compound 72, 5-(2,4-Difluorophenoxy)-N-(2-(dimethylamino)ethyl)-1-isobutyl-1H-indazole-6-carboxamide, reference compound], the “hBChE RA at 100 μM” value is 9%.
